# In ChEMBL document CHEMBL1146612, “Identification of a dual histamine H1/H3 receptor ligand based on the H1 antagonist chlorpheniramine” (Bioorg Med Chem Lett, 2003):
# By UniProt entry, the sequences of proteins in these tests, tags left out.
# UniProt P31390, whole entry: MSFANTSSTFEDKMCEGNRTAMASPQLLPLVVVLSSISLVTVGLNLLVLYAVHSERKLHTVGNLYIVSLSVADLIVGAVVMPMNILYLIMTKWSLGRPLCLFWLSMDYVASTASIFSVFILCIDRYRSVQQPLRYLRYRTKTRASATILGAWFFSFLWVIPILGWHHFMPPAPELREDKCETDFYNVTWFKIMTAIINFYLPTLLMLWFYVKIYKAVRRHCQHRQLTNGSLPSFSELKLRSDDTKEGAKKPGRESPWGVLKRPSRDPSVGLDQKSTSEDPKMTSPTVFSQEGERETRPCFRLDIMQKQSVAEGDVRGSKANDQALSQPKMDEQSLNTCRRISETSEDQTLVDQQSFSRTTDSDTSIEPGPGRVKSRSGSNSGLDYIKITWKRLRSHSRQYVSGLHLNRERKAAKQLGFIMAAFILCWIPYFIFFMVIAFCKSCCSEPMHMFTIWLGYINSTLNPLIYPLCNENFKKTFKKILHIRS
# Target: Histamine H1 receptor (Rattus norvegicus, UniProt P31390)
# Assay: Ability to displace [3H]pyrilamine from histamine H1 receptor in male Sprague-Dawley rat brain membranes
# Type: tissue-based, Membrane
structure (smiles),measurement,value
CN(C)CCC(c1ccc(Cl)cc1)c1ccccn1 (stereo unspecified) [CHLORPHENIRAMINE],Ki,2 nM
